Test results taken from US20250297233A1, “GENETICALLY ENCODED SYSTEMS FOR GENERATING OXYGEN IN LIVING EUKARYOTIC CELLS” (The General Hospital Corporation, priority 2022, published 2025).

Assays:
HeLa cells [1] = details: 3 days
HeLa cells [2] = tested on: HeLa cells

sodium chlorite
three-day toxicity with NdCld co-expression (HeLa cells [1]; HeLa cells expressing NdCld+NIS, FIG. 3D): could be attenuated
three-day toxicity in cells expressing NdCld (HeLa cells [1]; HeLa cells expressing NdCld, FIG. 3B): toxicity was alleviated
change in three-day toxicity on expression of human NIS (HeLa cells [1]; HeLa cells expressing human NIS, FIG. 3C): five-fold increase
viability four hours after exposure (HeLa cells [2]; 30 minute exposure to high dose chlorite, FIG. 7): no dimunition in viability
viability during Seahorse experiments (HeLa cells [2]; one hour after addition of the highest doses of chlorite, FIG. 6C): remained viable
